The source of these data is ChEMBL document CHEMBL5506068 (J Med Chem, 2024).

Each structure is given as a SMILES string.

This assay is filed under the species Mus musculus. Put plainly: Selectivity ratio of Kd for mouse MOR to Kd for mouse KOR.

For the compound `Cl.O=C(/C=C/c1ccco1)N[C@H]1CC[C@@]2(O)[C@H]3Cc4ccc(O)c5c4[C@@]2(CCN3CC2CC2)[C@H]1O5`, the Ratio was 0.
